{
  "sequences": {"note": "Protein sequences, listed by entry. Tags and fused reporters are not part of them.", "UniProt P37231, whole entry": "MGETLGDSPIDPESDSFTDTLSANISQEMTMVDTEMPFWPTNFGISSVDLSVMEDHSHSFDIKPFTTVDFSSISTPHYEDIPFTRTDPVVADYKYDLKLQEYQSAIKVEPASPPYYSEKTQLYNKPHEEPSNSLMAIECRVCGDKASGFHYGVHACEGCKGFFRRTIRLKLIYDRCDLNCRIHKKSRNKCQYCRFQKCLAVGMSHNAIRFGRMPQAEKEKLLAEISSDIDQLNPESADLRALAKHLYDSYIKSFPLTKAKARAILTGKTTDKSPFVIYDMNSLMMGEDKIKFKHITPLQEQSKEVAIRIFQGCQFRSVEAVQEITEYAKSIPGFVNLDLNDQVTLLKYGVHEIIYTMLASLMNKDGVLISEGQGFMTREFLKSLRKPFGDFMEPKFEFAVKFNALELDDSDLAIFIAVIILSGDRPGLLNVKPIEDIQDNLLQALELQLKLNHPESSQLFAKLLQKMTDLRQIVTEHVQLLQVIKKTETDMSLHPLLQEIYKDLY"},
  "source": "patent US7960408B2",
  "about": "“Quinolinyl and benzothiazolyl modulators” (Amgen Inc., priority 2000, dated 2011)",
  "target": "PPARγ (Homo sapiens, UniProt P37231)",
  "test": "PPARγ ligand binding assay utilizing [3H]-BRL 49653 as the radioligand",
  "conditions": "read-out: PPARγ Binding IC50; concentration required to reduce by 50% the specific binding of [3H]-BRL 49653",
  "data": [
    {"smiles": "O=S(=O)(Nc1cc(Cl)c(Oc2cnc3ccccc3c2)c(Cl)c1)c1ccc(Cl)cc1C(F)(F)F", "values": [
      {"measurement": "IC50", "value": "< 1000", "unit": "nM"}
    ]}
  ]
}
